The values below are quoted from earlier work in US20080063637A1, “Regulation of oncogenesis by Akt-specific isoforms” (The Trustees of Tufts College, priority 2006, published 2008).

Chains of the proteins cited; added tags and fusions are not shown.
UniProt P31749, whole entry: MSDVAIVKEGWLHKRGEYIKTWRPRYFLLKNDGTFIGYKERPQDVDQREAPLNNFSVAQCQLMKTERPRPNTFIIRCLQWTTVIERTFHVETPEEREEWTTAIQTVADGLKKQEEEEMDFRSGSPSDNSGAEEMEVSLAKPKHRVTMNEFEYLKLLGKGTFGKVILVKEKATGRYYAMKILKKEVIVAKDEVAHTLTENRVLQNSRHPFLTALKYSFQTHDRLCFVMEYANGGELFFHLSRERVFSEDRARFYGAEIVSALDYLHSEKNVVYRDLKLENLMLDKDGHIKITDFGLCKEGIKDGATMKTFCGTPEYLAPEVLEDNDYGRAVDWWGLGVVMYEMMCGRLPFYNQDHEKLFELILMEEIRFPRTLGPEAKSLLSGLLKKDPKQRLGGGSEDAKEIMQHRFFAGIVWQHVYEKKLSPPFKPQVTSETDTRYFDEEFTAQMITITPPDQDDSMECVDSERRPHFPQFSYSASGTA

Data set [1] has as its system LNCap prostate cancer cells. Conditions: Barnett et al. 2005.
In data set [2] the test system is corresponding Akt isoforms (phosphorylation by PDK1). Conditions: Barnett et al. 2005.
Another data set concerns the target Akt1 (Homo sapiens, UniProt P31749). Conditions: read-out: IC50 Akt1 kinase inhibition; HTRF assay; Barnett et al. 2005. In general terms: Time-resolved FRET reads energy transfer from a long-lived donor to a nearby acceptor.

As to `CN(C)CC(C)(C)CNc1nn2c(-c3ccccc3)nnc2cc1C1CCC1`, in data set [1], the TRAIL-induced apoptosis result is reported as “promote”. Besides, in data set [2], the “phosphorylation and activation of the corresponding Akt isoforms by PDK1” value is “blocked”. Also, the concentration for half-maximal inhibition (IC50) (usually the concentration at which inhibition is half-maximal) on Akt1 is 4.6 µM.
